According to publication PMC10191619, “Bilirubin gates the TRPM2 channel as a direct agonist to exacerbate ischemic brain damage” (Neuron, 2023):

Tested on: tMCAO D1066A KI mice
Experiment: tMCAO ischemia model, infarct volume by TTC staining, D1066A KI mice
Conditions: 24 h after tMCAO

`C=CC1=C(C)/C(=C/c2[nH]c(Cc3[nH]c(/C=C4\NC(=O)C(C)=C4C=C)c(C)c3CCC(=O)O)c(CCC(=O)O)c2C)NC1=O` [bilirubin, Bilirubin] was tested, and the “exacerbated ischemic brain injury by bilirubin in the tMCAO model” value was “completely ablated”.
